## Apparent affinities of Ab-91 variants for a coronavirus HR2 peptide

Binding partner: SARS-CoV-2 spike HR2 peptide, sequence PDVDLGDISGINAS.

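The parent was found by panning a naive human phage display library on the peptide. AAYL51 was designed without a model: most single CDR substitutions and a random sample of double and triple ones. The assay is AlphaSeq: two haploid yeast populations carry antibody and antigen on their surface. After mating in shaken culture at 30 °C for 16 h, diploids were selected and their barcode pairs sequenced. Read counts were normalised to the haploid input and turned into Kd by a linear fit to BCL2-family pairs of known affinity, for each replicate. Mating was done three times.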

Ab-91 is the parent antibody, in scFv form: VL, then a (GGGGS)3 linker, then VH. The light chain is unchanged in all variants.
VL: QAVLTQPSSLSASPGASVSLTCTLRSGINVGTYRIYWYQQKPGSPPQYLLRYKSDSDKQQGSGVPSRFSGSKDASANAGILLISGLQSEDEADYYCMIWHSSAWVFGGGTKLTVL
VH: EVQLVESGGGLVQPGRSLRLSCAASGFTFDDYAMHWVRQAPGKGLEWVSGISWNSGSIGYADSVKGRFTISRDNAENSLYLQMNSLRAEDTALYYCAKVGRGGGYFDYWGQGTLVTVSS

Changes read parent residue, position, new residue, counted from the first residue of the VH shown.
Values are log10 of the apparent Kd in nM; lower means stronger binding.
The mean shown is taken over the replicates in which the pair was detected.
"ND" marks a missing value. The strain was present, yet no cells mated with the target were sequenced in that replicate, which points to weak or no binding.
Nonspecific signal, from three strains lacking the peptide, appeared in 21% of pairings of library AAYL51, centred on 4.54 (5% of these signals below 3.26); values are not corrected for it. Also given: how often the same scFv was detected with the empty control strains, with their mean in brackets.
Parent in this assay: reference entry 1.86, copy in this library 0.88.

changes,log10 Kd (nM) by replicate,"mean, log10 nM",signal with controls
H35T S52W Y108T,5.82 3.70 ND,4.76,3/9 (4.06)
A61V V64M G104S,5.87 5.11 4.29,5.09,3/9 (4.93)
T28E D31Q A61Q,1.46 1.05 0.43,0.98,0/9
S52W R101C F106H,ND ND ND,ND,1/9 (5.12)
I51R N54A V99R,4.43 4.92 5.25,4.87,3/9 (5.35)
S52E G102V,ND ND ND,ND,0/9
Y32D N54H S63V,4.01 4.63 4.08,4.24,4/9 (4.61)
G50T G59D D62K,ND ND ND,ND,0/9
A33S I58R V99R,4.62 5.63 4.55,4.93,6/9 (4.92)
H35N Y60A,5.80 5.72 4.03,5.18,7/9 (5.18)
A33C N54P G100H,ND ND ND,ND,0/9
F29M N54Q V64H,ND ND 3.59,3.59,4/9 (4.53)
F27W D62L Y108A,ND ND ND,ND,1/9 (4.87)
H35K S63P G103N,5.65 ND 4.52,5.09,4/9 (5.09)
V99E G102Y G103W,1.98 2.32 2.19,2.16,1/9 (4.70)
H35W G50K S57P,4.69 5.39 ND,5.04,3/9 (4.86)
F27P W53S V64G,2.72 ND 3.00,2.86,0/9
F27W M34G H35R,ND ND ND,ND,1/9 (5.09)
G56S G104F Y105R,5.42 ND ND,5.42,2/9 (4.02)
D31R D62Y,ND ND ND,ND,0/9
S52M Y105N D107I,ND ND ND,ND,0/9
D31M M34S G50E,4.84 ND ND,4.84,0/9
S52L S63Q G103S,ND ND ND,ND,3/9 (5.12)
D30H S52P S63Q,4.69 5.43 4.95,5.02,5/9 (5.29)
T28Y S52L N54H,4.09 4.75 ND,4.42,3/9 (4.08)
T28W S52F V99D,ND ND ND,ND,2/9 (3.82)
I58M V99Q G100E,2.86 3.29 3.03,3.06,4/9 (4.65)
S52P S57Q S63N,ND ND ND,ND,0/9
H35G V99K R101K,4.28 ND ND,4.28,4/9 (4.91)
D62R K65E,0.78 0.70 0.23,0.57,7/9 (5.35)
G26E Y60P G102I,ND 4.99 ND,4.99,1/9 (5.43)
G26V Y105K D107S,ND ND ND,ND,0/9
Y32E S63Q,4.27 5.04 5.46,4.92,3/9 (4.63)
T28S M34Y K65N,ND ND ND,ND,0/9
F29E H35E Y60R,5.38 4.21 4.82,4.80,6/9 (4.83)
H35F G59N Y60C,ND ND ND,ND,0/9
D31C G103T F106S,3.76 ND ND,3.76,1/9 (3.82)

The 6 strongest on average among those seen in every replicate, once more:

{"changes": "D62R K65E", "log10 Kd (nM) by replicate": "0.78 0.70 0.23", "mean, log10 nM": "0.57", "signal with controls": "7/9 (5.35)"}
{"changes": "T28E D31Q A61Q", "log10 Kd (nM) by replicate": "1.46 1.05 0.43", "mean, log10 nM": "0.98", "signal with controls": "0/9"}
{"changes": "V99E G102Y G103W", "log10 Kd (nM) by replicate": "1.98 2.32 2.19", "mean, log10 nM": "2.16", "signal with controls": "1/9 (4.70)"}
{"changes": "I58M V99Q G100E", "log10 Kd (nM) by replicate": "2.86 3.29 3.03", "mean, log10 nM": "3.06", "signal with controls": "4/9 (4.65)"}
{"changes": "Y32D N54H S63V", "log10 Kd (nM) by replicate": "4.01 4.63 4.08", "mean, log10 nM": "4.24", "signal with controls": "4/9 (4.61)"}
{"changes": "F29E H35E Y60R", "log10 Kd (nM) by replicate": "5.38 4.21 4.82", "mean, log10 nM": "4.80", "signal with controls": "6/9 (4.83)"}

From the AlphaSeq antibody data of Engelhart et al. 2022 (doi:10.1038/s41597-022-01779-4), copy in the FLAb collection.